According to ChEMBL document CHEMBL1152259, “Synthesis of new sulfonate and phosphonate derivatives for cation-independent mannose 6-phosphate receptor targeting” (Bioorg Med Chem Lett, 2008):

Molecular target: Cation-independent mannose-6-phosphate receptor/IGF2R (Homo sapiens) (UniProt P11717)
Experiment: Binding affinity to CI-M6PR relative to mannose 6-phosphate

Structure (SMILES) | Ratio IC50
CO[C@H]1O[C@H](CCS(=O)(=O)[O-])[C@@H](O)[C@H](O)[C@@H]1O.[Na+] | 0.15
CO[C@H]1O[C@H](/C=C/S(=O)(=O)[O-])[C@@H](O)[C@H](O)[C@@H]1O.[Na+] | 0.3
CO[C@H]1O[C@H](/C=C/P(=O)([O-])[O-])[C@@H](O)[C@H](O)[C@@H]1O.[Na+].[Na+] | 1.05
